Drawing on PubChem BioAssay AID1454 (National Center for Advancing Translational Sciences (NCATS), 2008), this text covers activity change, negative = inhibition for 33 compounds.

Molecules are shown by their SMILES. The entries are a selection whose mix differs from that of the whole data set. Inconclusive results are not listed. Activity calls are given as the source filed them. Calls come from the whole dose curve; as a rule, active = well fitted inhibition curve with a large enough effect; inconclusive = small, poorly fitted or top-dose-only effect, or effect the other way; inactive = flat fitted curve, though single readings scatter.

The nature of the assay: qHTS Assay for Inhibitors of the ERK Signaling Pathway using a Homogeneous Screening Assay; Stimulation with EGF.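 Note: plate controls were stimulated vehicle wells for no effect and unstimulated vehicle basal for full effect; nearly all actives have a fitted effect of over 55% in size.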 The settings on record: HEK293-V1b, EGF-stimulated phospho-ERK AlphaScreen; series mostly up to 57.5 µM. (qHTS replaces the single test concentration by a dilution series.)
In the case of `Cc1ccc(OP(=O)(Nc2ccccn2)Oc2ccc(C)cc2)cc1`, the activity change, negative = inhibition was inactive: -9.28% [at 11.5 µM]. Under `CC(=O)NC(SC(=S)N(CC(C)C)CC(C)C)C(Cl)(Cl)Cl` (stereo not drawn) stands inactive: -1.63% [at 11.5 µM]; under `CN(C)C(=O)Oc1noc2ccccc12`, “inactive”. As for `O=c1c2cc([N+](=O)[O-])ccc2[nH]c2c([N+](=O)[O-])cc([N+](=O)[O-])cc12`, the activity change, negative = inhibition was inactive: 5.18% [at 11.5 µM]. Under `Cc1ccccc1OP(=O)(Nc1ccccn1)Oc1ccccc1C` stands “inactive”; under `O=P(Nc1nc2ccc(Cl)cc2s1)(c1ccccc1)c1ccccc1`, “inactive”. Consider `O=C(O)c1ccccc1[As](=O)(O)O`, for which the activity change, negative = inhibition result was “inactive”. As for `CC(=O)Nc1ccc([As](=O)(O)O)cc1`, the activity change, negative = inhibition result is “inactive”. Under `Cc1ccc(NP(=O)(Oc2ccccc2F)Oc2ccccc2F)nc1` stands “inactive”; under `CN(C(=O)Cc1ccc(Cl)c(Cl)c1)[C@H]1CCCC[C@@H]1N1CCCC1`, inactive: -0.48% [at 11.5 µM] [middle of 5 runs]; under `CCOP(=O)(Nc1ccccc1)OCC`, “inactive”.

Consider `Cc1cc(SC(NC(=O)c2ccc(F)cc2)C(Cl)(Cl)Cl)ncn1` (stereo not drawn), for which the activity change, negative = inhibition was inactive: -0.0091% [at 11.5 µM].

For the compound `Nc1cccc2ccc([As](=O)(O)O)cc12`, the activity change, negative = inhibition result was “inactive”.

With `CCN(N=Nc1nonc1N)c1nonc1N`, the activity change, negative = inhibition is inactive: 1.72% [at 11.5 µM]. Under `Cc1ccc(N/C(=N/P(=O)(N2CCOCC2)N2CCOCC2)N2CCOCC2)cc1` stands inactive: 0.0324% [at 11.5 µM].

For `NC(=O)c1cc([N+](=O)[O-])cc([N+](=O)[O-])c1N`, the activity change, negative = inhibition was inactive: 2.16% [at 11.5 µM]. Take `Clc1ccc(Cl)c(NC2=NCC(CBr)S2)c1` (stereo not drawn): the activity change, negative = inhibition result was “inactive”. Under `CN1CCCC(OC(=O)C(c2ccccc2)c2ccccc2)C1` (stereo not drawn) stands inactive: 8.11% [at 11.5 µM]; under `Cc1ccc(OP(=O)(Nc2nccs2)Oc2ccc(C)cc2)cc1`, “inactive”; under `COc1ccccc1OP(=O)(Nc1ccc(C)cn1)Oc1ccccc1OC`, inactive: -2.49% [at 11.5 µM].

On to `O=C(NC(Sc1ccncn1)C(Cl)(Cl)Cl)c1ccccc1` (stereo not drawn), for which the activity change, negative = inhibition is inactive: -0.84% [at 11.5 µM]. On to `Nc1cc(N)c2nonc2c1[N+](=O)[O-]`, for which the activity change, negative = inhibition entry is “inactive”. Under `COc1ccc(C2=NCC(CBr)S2)cc1` (stereo not drawn) stands inactive: 1.38% [at 11.5 µM]; under `Cc1ccc(NP(=O)(Oc2ccccc2)Oc2ccccc2)nc1`, inactive: -2.12% [at 11.5 µM]; under `CCN(/C(=N/P(=O)(N1CCOCC1)N1CCOCC1)N1CCOCC1)c1ccc(OC)cc1`, inactive: -2.18% [at 11.5 µM]. Under `Nc1ccc([As](=O)(O)c2ccc(N)cc2)cc1` stands “inactive”; under `CN(C)C(=O)OCCc1n(C)cc[n+]1C`, inactive: 1.46% [at 11.5 µM]; under `CC(C)=N/N=C(\N)N[N+](=O)[O-]`, inactive: 1.11% [at 11.5 µM]. Under `O=C(Nc1cc([As](=O)(O)O)ccc1O)c1ccccc1` stands “inactive”; under `O=[N+]([O-])c1ncn(CCn2ncnc2[N+](=O)[O-])n1`, inactive: -9.62% [at 11.5 µM]; under `CC(C)(C)C(=O)NC(Sc1ccncn1)C(Cl)(Cl)Cl` (stereo not drawn), “inactive”.

For `O=C(O)CNc1ccc([As](=O)(O)O)cc1`, the activity change, negative = inhibition entry was “inactive”. Under `O=[N+]([O-])c1cccc(NC2=NCC(CBr)S2)c1` (stereo not drawn) stands “inactive”.
